Measurements taken from PubChem BioAssay AID799 (SRMLSC, 2007).
The entries are a selection whose mix differs from that of the whole data set. Active and inactive are the calls of the source.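 Rule for the calls: active = viability gain under doxorubicin at or above a set limit, the compound median plus 3 SD (cut at about 4.7% in these data); inactive = the rest.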

Assay: protection of MRP-1-high cells against doxorubicin toxicity – H69AR cells, CellTiter-Glo, MRP-1 activator project, primary screen (AID 799);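 note: MRP-1 overexpressing cells given doxorubicin 25 µM after compound pretreatment; 18-22 h compound pretreatment then 72 h with doxorubicin before readout; 0% = doxorubicin-only wells and 100% = vehicle-treated cells without doxorubicin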
Details: viability rescue, at 10 µM, hits give high values
For CCC(=O)N1C2C3N(C(=O)CC)C1C1N(C(=O)CC)C(C(N1C(=O)CC)N3C(=O)CC)N2C(=O)CC, the viability increase was inactive: 0.95%.
With CC(=O)NC(SC(=S)N(CC(C)C)CC(C)C)C(Cl)(Cl)Cl (stereo not drawn) the viability increase was inactive: -2.57%.
With COC(=O)c1cc2c(s1)N=C(c1ccccc1)N(C)P2(=O)N1CCOCC1 (stereo not drawn) the viability increase was inactive: -1.39%.
For CCOC(=O)NC(Sc1ccccc1)C(Cl)(Cl)Cl (stereo not drawn), the viability increase was inactive: 1.76%.
With O=P1(Nc2nc3ccc(Cl)cc3s2)COc2ccccc2O1 (stereo not drawn) the viability increase was inactive: -1.14%.
For O=P(Nc1nccs1)(c1ccccc1)c1ccccc1, the viability increase was inactive: -0.33%.
With CC(C)C(=O)NC(Sc1ccccc1)C(Cl)(Cl)Cl (stereo not drawn) the viability increase was inactive: -0.74%.
For c1nnnn1CCn1cnnn1, the viability increase was inactive: -0.66%.
With CC(=O)NC(SC(=S)N(C)C)C(Cl)(Cl)Cl (stereo not drawn) the viability increase was inactive: -4.55%.
With O=C(OC1CN2CCC1CC2)c1cccc(Cl)c1 (stereo not drawn) the viability increase was inactive: -2.61%.
With C(Cc1nn[nH]n1)Cc1nn[nH]n1 the viability increase was inactive: -0.15%.
With CC1CCN(C(=O)Oc2c(Cl)cc(Cl)c3cccnc23)CC1 the viability increase was inactive: -1.96%.
In the case of CN(C)C(=O)OCCc1n(C)cc[n+]1C, the viability increase is reported as inactive: -2.51%.
For CCc1nc2c(n1)c1c(non1O)c1c2no[n+]1[O-], the viability increase was inactive: -4.83%.
With CC(=O)N1C2C3N(C(C)=O)C1C1N(C(C)=O)C(C(N1C(C)=O)N3C(C)=O)N2C(C)=O the viability increase was inactive: -0.17%.
For O=[N+]([O-])c1cccc2n[nH]nc12, the viability increase was inactive: 0.55%.
For O=C(NC(Sc1ccncn1)C(Cl)(Cl)Cl)c1ccccc1 (stereo not drawn), the viability increase was inactive: -1.74%.
In the case of Cc1c2non([O-])c-2c(C)[n+](=O)[n+]1[O-], the viability increase is reported as inactive: -6.19%.
For Oc1ccccc1CNc1ccccn1, the viability increase was inactive: -1.9%.
For CC(C)CC(=O)NC(Sc1ccc(Cl)cc1)C(Cl)(Cl)Cl (stereo not drawn), the viability increase was inactive: -0.28%.
With CN1CCCC(OC(=O)C(c2ccccc2)c2ccccc2)C1 (stereo not drawn) the viability increase was inactive: -2.51%.
With CCN(N=Nc1nonc1N)c1nonc1N the viability increase was inactive: 0%.
In the case of Cc1cc(SC(NC(=O)c2ccc(F)cc2)C(Cl)(Cl)Cl)ncn1 (stereo not drawn), the viability increase is reported as inactive: 1.5%.
For CCOP(=O)(Nc1ccccc1)OCC, the viability increase was inactive: 0%.
For ClCCSc1nnc(-c2cccnc2)o1, the viability increase was inactive: -1.56%.
With O=[N+]([O-])c1cc([N+](=O)[O-])c(-c2ccn[nH]2)s1 the viability increase was inactive: -4.5%.
With CCN(CC)C(=S)SC(NC=O)C(Cl)(Cl)Cl (stereo not drawn) the viability increase was inactive: -5.61%.
In the case of Cc1ccc2nc3c(c(C)c2c1)CC(C(Cl)Cl)S3 (stereo not drawn), the viability increase is reported as inactive: 0.36%.
With Cc1c2c(nc3ccccc13)SC(C(Cl)Cl)C2 (stereo not drawn) the viability increase was inactive: 1.21%.
With O=C(OC1CN2CCC1CC2)C12CC3CC(CC(C3)C1)C2 (stereo not drawn) the viability increase was inactive: -0.75%.
With CCC(C)N(CC(C)C)C(=S)SC(NC(C)=O)C(Cl)(Cl)Cl (stereo not drawn) the viability increase was inactive: 0.31%.
In the case of COP1(=S)c2c(C)nn(CCC#N)c2N=C(c2ccc(F)cc2)N1C (stereo not drawn), the viability increase is reported as inactive: -1.6%.
With O=C(COc1ccccc1)OC1CN2CCC1CC2 (stereo not drawn) the viability increase was inactive: -2.36%.
In the case of Cc1cc(SC(NC(=O)c2ccccc2)C(Cl)(Cl)Cl)nc(C(C)C)n1 (stereo not drawn), the viability increase is reported as inactive: -2.12%.
In the case of O=P1(Nc2ncccn2)COc2ccccc2OC1, the viability increase is reported as inactive: -0.53%.
For Cc1ccc(OCC(=O)OC2CN3CCC2CC3)cc1 (stereo not drawn), the viability increase was inactive: 0.11%.
For O=P1(Nc2ccc(Br)cn2)COc2ccccc2OC1, the viability increase was inactive: 0.05%.
For Cc1nn(-c2ccccc2)c2c1P(=O)(N1CCOCC1)N(C)C(c1ccccc1)=N2 (stereo not drawn), the viability increase was inactive: -2.81%.
In the case of O=P1(Nc2ccccn2)COc2ccccc2OC1, the viability increase is reported as inactive: -1.21%.
With Clc1n[nH]nc1-c1nn[nH][15n]1 the viability increase was inactive: 1.13%.
In the case of Cc1ccc(NCCc2c([N+](=O)[O-])cc([N+](=O)[O-])cc2[N+](=O)[O-])cc1, the viability increase is reported as inactive: -3.64%.
With CCOP(=O)(Nc1cccc2ccccc12)OCC the viability increase was inactive: -1.61%.
With COc1cc(C2NCCC3(OCCO3)C2(C)C)cc(OC)c1OC (stereo not drawn) the viability increase was inactive: -2.84%.
With Cc1cccc(OCC(=O)OC2CN3CCC2CC3)c1 (stereo not drawn) the viability increase was inactive: -3.51%.
With CCOP1(=S)c2c(C)nn(CCC#N)c2N=C(c2ccc(F)cc2)N1C (stereo not drawn) the viability increase was inactive: -1.43%.
With O=[N+]([O-])c1ccc2c(c1)nnn2O the viability increase was inactive: 0.22%.
For O=P(Nc1nccs1)(c1ccccc1)c1nc2ccccc2s1 (stereo not drawn), the viability increase was inactive: -0.35%.
In the case of CCOP1(=S)c2c(C)nn(CCC#N)c2N=C(c2ccccc2F)N1C (stereo not drawn), the viability increase is reported as inactive: -0.64%.
